Data from BindingDB's records for PubMed 38653067 (Cairo University).

Target: Carbonic anhydrase 2 (Homo sapiens, UniProt P00918)

- Ki: 41 nM
SMILES: CN1C(=O)C(=C2C(=O)Nc3ccccc32)S/C1=N/c1ccc(S(N)(=O)=O)cc1
